Reference: US8119619B2, “Pregnane steroids and their use in the treatment of CNS disorders” (Umecrine AB, priority 2001, dated 2012)

Test system: GABA-A receptor
Assay: Cortical tissue homogenate study: radioactive chloride uptake into vesicles through the GABA-A receptor
Type: biochemical, rat
Settings: 10 μM GABA alone = 100%; 3alpha-hydroxy-5alpha-pregnan-20-one 0-3000 nM + 10 μM GABA + 30 μM interacting steroid; reference steroid tested without blocker
Description: In these studies cortical tissue from mature male rats was homogenized in buffer. As a result of this procedure a suspension of small vesicles was formed, said vesicles having GABA-A receptors on their surface. When radioactive chloride is added to this suspension, a certain amount will enter the vesicles. This amount is related to how much open the GABA-A receptor is. Drugs that open the receptor will increase the amount of chloride in the vesicles in relation to the dosage of the drug. Similarly, drugs that close the GABA-A receptor will decrease the amount of chloride moving into the vesicles. The labeled chloride outside of the vesicles was washed away and separated from the chloride inside. The amount of radioactively labeled chloride inside the vesicles was thereafter measured in a fluid scintillator and a curve drawn.
At each experiment, a control of increasing dosages of GABA was used to ensure that the tissue sample is working properly. A second control was used to enhance the effect of 10 μM of GABA by adding increasing dosages 3alpha-hydroxy-5alpha-pregnan-20-one.
The effect is shown as a percentage change from the uptake with only 10 μM GABA and no 3 alpha-hydroxy-5alpha-pregnan-20-one in this case given the measure 100%. […]

## CC(=O)[C@H]1CC[C@H]2[C@@H]3CC[C@H]4C[C@@H](O)CC[C@]4(C)[C@H]3C(=O)C[C@]12C [UC1017, 3beta hydroxy-5alpha-pregnan-11,20-dione]
  Mean % (SEM) chloride uptake relative to only 10 uM GABA: 116.9(19) %
